Source: patent publication US20230330243A1, “COMBINATION OF ANTIBODY-DRUG CONJUGATE AND ATR INHIBITOR” (Daiichi Sankyo Company, Limited, priority 2020, published 2023)

Columns and labels:
Format in all cases: cell-based
[1] = system: DU145-SLFN11 KO (CRISPR-Cas9 gene knockout of SLFN11); assay: Nuclear cell count growth inhibition, 4 to 8 days (Example 4); conditions: Prostate, HER2 Low, monotherapy
Method: (§1) Cells grown in their respective conditions were plated in 96-well plates at optimal density to allow linear proliferation for the duration of the assay (4 to 8 days; duration of treatment is dependent on the growth rate of each cell line). Immediately after plating, the cells were dosed with the indicated compounds for a total volume of 200 µL/well and placed in the incubator. Combinations were conducted as a 6 × 8 concentration response matrix for each combination. At the endpoint, the cells were fixed in 2% PFA for 20 minutes at room temperature. In order to obtain the number of cells at the start of treatment, one additional plate was used for each experiment and fixed after cells attached. The cells were then permeabilised in 0.5% Triton-X100 in PBS for 10 minutes. After a PBS wash, the cells were blocked in 5% FBS in PBS 1h at RT and incubated with primary antibodies in 5% FBS + 0.05% triton overnight at 4° C. After 3 washes in PBS cells were incubated with secondary antibodies in 5% FBS + 0.05% triton with Hoechst33258 for 1h at room temperature. After 3 washes in PBS, the cells were scanned with a Cellinsight instrument with a 10× objective and 9 fields/well. Images were analysed using Columbus for cell count based on nuclear Hoechst staining and nuclear intensity of other biomarkers investigated. The total cell count/well was used to calculate the relative growth in each well compared to solvent control. […] The mean/well of the sum of the nuclear intensity of the IF biomarkers was also expressed relative to solvent control.

[2] = system: DU145; assay: as above; conditions: DU145, Prostate, HER2 Low; monotherapy
Method: as §1

[3] = system: NCI-N87; assay: as above; conditions: NCI-N87, Gastric, HER2 High; monotherapy
Method: as §1

[4] = system: KPL4; assay: Nuclear cell count growth inhibition / synergy and IF biomarkers, 4 to 8 days (Example 4)
Method: as §1

[5] = system: MDA-MB-468; assay: as above; conditions: MDA-MB-468, Breast, HER2 Low; monotherapy
Method: as §1

[6] = system: SK-OV-3; assay: Nuclear cell count growth inhibition / synergy, 4 to 8 days (Example 4); conditions: SK-OV-3, Ovarian, HER2 Moderate; monotherapy
Method: (§2) Cells grown in their respective conditions were plated in 96-well plates at optimal density to allow linear proliferation for the duration of the assay (4 to 8 days; duration of treatment is dependent on the growth rate of each cell line). Immediately after plating, the cells were dosed with the indicated compounds for a total volume of 200 µL/well and placed in the incubator. Combinations were conducted as a 6 × 8 concentration response matrix for each combination. At the endpoint, the cells were fixed in 2% PFA for 20 minutes at room temperature. In order to obtain the number of cells at the start of treatment, one additional plate was used for each experiment and fixed after cells attached. The cells were then permeabilised in 0.5% Triton-X100 in PBS for 10 minutes. After a PBS wash, the cells were blocked in 5% FBS in PBS 1h at RT and incubated with primary antibodies in 5% FBS + 0.05% triton overnight at 4° C. After 3 washes in PBS cells were incubated with secondary antibodies in 5% FBS + 0.05% triton with Hoechst33258 for 1h at room temperature. After 3 washes in PBS, the cells were scanned with a Cellinsight instrument with a 10× objective and 9 fields/well. Images were analysed using Columbus for cell count based on nuclear Hoechst staining and nuclear intensity of other biomarkers investigated. […]

[7] = system: JIMT-1; assay: as above; conditions: JIMT-1, Breast, HER2 Expressed; monotherapy
Method: as §2

[8] = system: ATR pathway in KPL4 (breast carcinoma) cells; assay: Antibody blots of ATR signaling (Example 6); conditions: DS-8201 at 30 µg/mL or exatecan mesylate alone, 7 h, 24 h or 48 h
Method: (§3) Gastric cancer NCI-N87 and breast carcinoma KPL4 cell lines were cultured in RPMI 1640 supplemented with 10 % FCS in a humidified incubator at 37° C. with 5% CO2. Cells were plated in 6-well plates at optimal density to allow linear proliferation for the duration of the assay. […] 7 h, 24 h or 48 h after dosing, whole-cell extracts were obtained by lysis in 50 mM Tris-HC1 pH 7.5, 2% SDS containing protease and phosphatase inhibitors. Lysates were boiled for 5 minutes at 95° C. Protein concentration was measured using a Nanodrop at […] and 50 µg of lysate were loaded in 4-12% Bis Tris gels. Proteins were transferred using iblot2. Primary antibodies (see Table 7) were incubated overnight at 4° C. in 3% milk TBS-tween 0.05% and HRP-conjugated secondary antibodies for 1h at room temperature. Blots were imaged using a G-box.

[9] = system: ATR pathway in NCI-N87 (gastric cancer) cells; assay: Antibody blots of ATR signaling (Example 6); conditions: DS-8201 at 30 µg/mL or exatecan mesylate alone, 7 h, 24 h or 48 h
Method: as §3

“DS-8201: anti-HER2 antibody-drug conjugate: exatecan-derivative drug-linker conjugated to anti-HER2 antibody via a thioether bond; DAR 7.7 or 7.8” was tested, and the GI50 [1] was 17.08 µg/mL, the GI50 [2] was 18.361 µg/mL and the GI50 [3] was 0.019 µg/mL. The GI50 ([4]; KPL4, Breast, HER2 High, monotherapy) was 0.044 µg/mL, the “Biomarkers of ATM (KAP1 pSer824) activation and DNA strand breaks (γH2AX)” value ([4]; KPL4, single agent) was “induced in a concentration dependent manner” and the GI50 [5] was 3.367 µg/mL. For the same substance, the GI50 [6] was 4.674 µg/mL, the GI50 [7] was 22.609 µg/mL and the “ATR pathway (pATR-T1989, pChk1-S345) and cell cycle arrest (pCdc2-Y15)” value [8] was “induced activation of the ATR pathway”. The “ATR pathway (pATR-T1989, pChk1-S345) and cell cycle arrest (pCdc2-Y15)” value [9] was “induced activation of the ATR pathway”.
